# PMC3951999 (Cancer cell, 2011)
# How the values were obtained:
# [1] = target: CRAF (Mus musculus, UniProt Q99N57); details: BCR-ABL^T315I Ba/F3 cells
# [2] = system: BV173R cells (BCR-ABL^T315I)
# [3] = system: BCR-ABL^T315I Ba/F3 cells
smiles,measurement,setting,value
Cc1nc(Nc2ncc(C(=O)Nc3c(C)cccc3Cl)s2)cc(N2CCN(CCO)CC2)n1 [dasatinib],CRAF activity,[1],activated CRAF
same,BRAF binding to CRAF,[2],induced BRAF binding to CRAF
same,MEK and ERK activity,[2],activated MEK and ERK
same,BRAF binding to CRAF,[3],enhanced BRAF binding to CRAF
